Target: T1, IDO1 enzyme in Hela cells (Homo sapiens, UniProt P14902)
T1 construct: endogenous in cells; host or cells: HeLa cells stimulated with human recombinant IFN-γ
Test: Inhibition of IDO1 enzyme in IFN-γ stimulated Hela cells (kynurenine read at 480 nm)
Format: cell-based
Conditions: 48 h

Sequences of proteins named here, by UniProt entry; tags and fusion partners are left off.
UniProt P14902, whole entry: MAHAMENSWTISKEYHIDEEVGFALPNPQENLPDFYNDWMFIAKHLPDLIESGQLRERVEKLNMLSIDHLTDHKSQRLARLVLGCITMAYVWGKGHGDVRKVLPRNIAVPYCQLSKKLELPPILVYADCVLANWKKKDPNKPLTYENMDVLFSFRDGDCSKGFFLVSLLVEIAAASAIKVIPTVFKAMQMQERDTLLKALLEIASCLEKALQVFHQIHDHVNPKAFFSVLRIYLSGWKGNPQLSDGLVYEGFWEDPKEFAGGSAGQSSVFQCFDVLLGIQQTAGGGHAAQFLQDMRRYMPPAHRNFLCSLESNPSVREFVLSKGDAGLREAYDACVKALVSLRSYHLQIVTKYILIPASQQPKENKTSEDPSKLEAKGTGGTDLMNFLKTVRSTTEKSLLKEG

## CCCCN(CCCC)c1ccc(/C(C)=C\C(=O)O)cc1NC(=O)Nc1ccc(C)cc1 [Compound 9, (Z)-3-(4-(dibutylamino)-3-(3-(p-tolyl)ureido)phenyl)but-2-enoic acid]
read-out: Inhibition rate (%) 100 nmol
  inhibition at 0.1 µM: 100%
read-out: Inhibition rate (%) 10 μmol
  inhibition at 10 µM: 100%

Source: US11370762B2, “Vinylarene derivative and application” (SHENYANG RESEARCH INSTITUTE OF CHEMICAL INDUSTRY CO., LTD., priority 2017, dated 2022)
